# Experiments:
# Sequences of proteins named here, by UniProt entry; tags and fusion partners are left off. Residues count along the entry.
# UniProt Q92793, 1085-1192 limits assumed: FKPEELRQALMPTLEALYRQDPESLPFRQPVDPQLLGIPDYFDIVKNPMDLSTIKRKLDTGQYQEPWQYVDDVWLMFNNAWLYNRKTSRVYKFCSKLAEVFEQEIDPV
# CBP BRD protein = CBP BRD protein (Homo sapiens, UniProt Q92793); test: CBP bromodomain TR-FRET inhibitory activity assay; details: read-out: CBP BRD IC50, Table 3
# Protocol: A time resolved fluorescence resonance energy transfer (TR-FRET) experiment was used to verify the activity of CBP bromodomain.
# The assay was performed in a final volume of 14 µL, optimized based on a CREBBP time resolved fluorescence resonance energy transfer (TR-FRET) assay kit (BPS Bioscience, cat. 32619) to maximize an assay window, and performed in a final volume of 14 µL, while maximizing the assay window. A TR-FRET fluorescence acceptor and a Tb donor were diluted in an assay buffer containing 2-[4-(2-hydroxyethyl)piperazin-1-yl]ethanesulfonic acid (HEPES) (hereafter, referred to as an assay buffer, BPS Bioscience, cat. 33012), and 3 µL of each solution was transferred to all wells of a white 384-low-volume well plate (Corning, cat. 4513). 2 µL of 4X Ac-H4 peptide (final concentration 85 nM) was transferred to high control wells and test wells. Each compound was prepared at 10 concentration points by serially diluting 3-fold from the highest concentration in a dimethyl sulfoxide solvent. The compound at each concentration was then diluted in the assay buffer to prepare a diluted compound solution that was 4-fold more concentrated than the final concentration. 2 µL of each compound or dimethyl sulfoxide prepared in this way was distributed into an assay plate so that the final test concentration was a minimum of 0.5 µM to a maximum of 10 µM (final dimethyl sulfoxide concentration 1%). 6 µL of 1X assay buffer was added to low control wells and 2 µl was added to high control and test wells. Then, 2 µL of 4X CBP BRD protein (final concentration 7.5 nM, BPS bioscience, cat 31128) was added to initiate a PPI reaction. The plate was reacted at room temperature for 2 hours before measuring the signal. The TR-FRET signal was measured using an EnVision Multilabel plate reader (PerkinElmer; Mirror LNACE/DELFIA Dual/Bias). For data analysis, the values of each well were obtained using a TR-FRET ratio ((Signal 665 nm/Signal 615 nm)×20000). Data analysis was performed using the TR-FRET ratio ((Signal 665 nm/Signal 615 nm)×20000). Data were reported as percent inhibition compared to control wells based on the following equation: %Activity = ((FRETcompound - FRETLow av)/(FRETHigh av - FRETLow av))×100. IC50 analysis was determined by standard 4 parameter curve fitting according to an algorithm using GraphPad Prism 7.0 (GraphPad Software Inc., La Jolla, CA, USA). All data are expressed as mean ± standard error of the mean (SEM).
# BRD4 (BD1) protein = BRD4 (BD1) protein (Homo sapiens, UniProt O60885); test: BRD4 bromodomain TR-FRET inhibitory activity assay; details: read-out: BRD4 (BD1) IC50, Table 4
# Protocol: BRD inhibitory activity was measured using a time resolved fluorescence resonance energy transfer (TR-FRET) experiment to verify the activity of BRD4 bromodomain.
# The assay was performed in a final volume of 14 µL, optimized based on a CREBBP time resolved fluorescence resonance energy transfer (TR-FRET) assay kit (BPS Bioscience, cat. 32613) to maximize an assay window, and performed in a final volume of 14 µL, while maximizing the assay window. A TR-FRET fluorescence acceptor and a Tb donor were diluted in an assay buffer containing 2-[4-(2-hydroxyethyl)piperazin-1-yl]ethanesulfonic acid (HEPES) (hereafter, referred to as an assay buffer, BPS Bioscience, cat. 33012), and 3 µL of each solution was transferred to all wells of a white 384-low-volume well plate (Corning, cat. 4513). 2 µL of 4X Ac-H4 peptide (final concentration 15 nM) was transferred to high control wells and test wells. Each compound was prepared at 10 concentration points by serially diluting 3-fold from the highest concentration in a dimethyl sulfoxide (DMSO) solvent. The compound at each concentration was then diluted in the assay buffer to prepare a diluted compound solution that was 4-fold more concentrated than the final concentration. 2 µL of each compound or dimethyl sulfoxide prepared in this way was distributed into an assay plate so that the final test concentration was a minimum of 0.5 µM to a maximum of 10 µM (final DMSO concentration 1%). 6 µL of 1X assay buffer was added to low control wells and 2 µL was added to high control and test wells. Then, 2 µL of 4X BRD4 (BD1) protein (final concentration 7.5 nM, BPS bioscience, cat 31040) was added to initiate a PPI reaction. The plate was reacted at room temperature for 2 hours before measuring the signal. The TR-FRET signal was measured using an EnVision Multilabel plate reader (PerkinElmer; Mirror LNACE/DELFIA Dual/Bias). For data analysis, the values of each well were obtained using the TR-FRET ratio ((Signal 665 nm/Signal 615 nm)×20000). Data analysis was performed using the TR-FRET ratio ((Signal 665 nm/Signal 615 nm)×20000). Data were reported as percent inhibition compared to control wells based on the following equation: %Activity = ((FRETcompound - FRETLow av)/(FRETHigh av - FRETLow av))×100. IC50 analysis was determined by standard 4 parameter curve fitting according to an algorithm using GraphPad Prism 7.0 (GraphPad Software Inc., La Jolla, CA, USA). All data are expressed as mean ± standard error of the mean (SEM).
Structure (SMILES),IC50 (CBP BRD protein) [µM],IC50 (BRD4 (BD1) protein) [µM]
CC(=O)Nc1ccc(-c2cc3nc(-c4cncn4C)n(-c4cc(N5CCOCC5)c5c(c4)n(C)c(=O)n5C)c3cc2F)cc1,< 0.5,0.5 to 5
CCn1cc(-c2cc3nc(-c4cncn4C)n(-c4cc(N5CCOCC5)c5c(c4)n(C)c(=O)n5C)c3cc2F)cn1,< 0.5,> 5
COc1cc2c(cc1-c1cnn(C)c1)nc(C(C)(C)C)n2-c1cc(N2CCC(O)CC2)c2c(c1)n(C)c(=O)n2C,< 0.5,> 5
Cn1cc(-c2cc3nc(-c4cncn4C)n(-c4ccc5[nH]c(=O)n(C)c5c4)c3cc2F)cn1,0.5 to 5,> 5
COC(C)c1cc(-n2c(-c3cncn3C)nc3cc(-c4cnn(C)c4)c(F)cc32)cc2c1n(C)c(=O)n2C (stereo not shown),0.5 to 5,> 5
CNC(=O)c1ccc(-c2ccc3c(c2)nc(-c2cncn2C)n3-c2cc(C3CCOCC3)c3c(c2)n(C)c(=O)n3C)cc1F,< 0.5,> 5
Cc1ncc(-c2cc3nc(C(C)(C)C)n(-c4cc(OC5COC5)c5c(c4)n(C)c(=O)n5C)c3cc2C(F)F)s1,< 0.5,> 5
CC(C)n1cc(-c2cc3nc(C(C)(C)C)n(-c4cc(N5CC(C)(O)C5)c5c(c4)n(C)c(=O)n5C)c3cc2C(F)F)cn1,< 0.5,> 5
CCn1cc(-c2cc3nc(C(C)(C)C)n(-c4cc(N5CC(C)(O)C5)c5c(c4)n(C)c(=O)n5C)c3cc2C(F)F)cn1,< 0.5,> 5
Cn1cc(-c2cc3nc(C(C)(C)C)n(-c4cc(N5CCOCC5)c5c(c4)n(C)c(=O)n5C)c3cc2CN2CCOCC2)cn1,0.5 to 5,> 5
Cn1cc(-c2cc3nc(C(C)(C)C)n(-c4cc(N5CC(F)(F)C5)c5c(c4)n(C)c(=O)n5C)c3cc2C(F)(F)F)cn1,< 0.5,> 5
Cc1ncc(-c2cc3nc(C(C)(C)C)n(-c4cc(OCCN5CCOCC5)c5c(c4)n(C)c(=O)n5C)c3cc2C(F)F)s1,< 0.5,> 5
Cn1cc(-c2cc3nc(-c4cncn4C)n(-c4cc(C5=CCNCC5)c5c(c4)n(C)c(=O)n5C)c3cc2F)cn1,0.5 to 5,> 5
Cn1cc(-c2cc3nc(-c4cncn4C)n(-c4cc(N5CCC(C)(O)CC5)c5c(c4)n(C)c(=O)n5C)c3cc2C(F)F)cn1,< 0.5,0.5 to 5
Cn1cc(-c2cc3nc(C(C)(C)C)n(-c4cc(C5CCOCC5)c5c(c4)n(C)c(=O)n5C)c3cc2C#N)cn1,< 0.5,> 5
CC(C)Cc1cc(-n2c(-c3cncn3C)nc3cc(-c4cnn(C)c4)c(F)cc32)cc2c1n(C)c(=O)n2C,< 0.5,> 5
COC1(C)CN(c2cc(-n3c(-c4cncn4C)nc4cc(-c5cnn(C)c5)c(C#N)cc43)cc3c2n(C)c(=O)n3C)C1,< 0.5,> 5
Cc1ncc(-c2cc3nc(C(C)(C)C)n(-c4cc(N5CC(C)(O)C5)c5c(c4)n(C)c(=O)n5C)c3cc2C(F)(F)F)s1,< 0.5,> 5

Structure (SMILES),IC50 (CBP BRD protein) [µM],IC50 (BRD4 (BD1) protein) [µM]
Cc1ccc2c(-c3nc4cc(-c5cnn(C)c5)ncc4n3-c3ccc4c(c3)n(C)c(=O)n4C)c[nH]c2c1,0.5 to 5,> 5
Cn1cncc1-c1nc2cc(-c3ccc(N)cc3)c(F)cc2n1-c1cc(C2CCOCC2)c2c(c1)n(C)c(=O)n2C,< 0.5,> 5
Cn1cc(-c2cc3nc(-c4cncn4C)n(-c4cc(NC5CCCCC5)c5c(c4)n(C)c(=O)n5C)c3cc2F)cn1,< 0.5,> 5
Cc1nc(-c2cc3nc(C(C)(C)C)n(-c4cc(NC(C)C)c5c(c4)n(C)c(=O)n5C)c3cc2F)no1,< 0.5,> 5
Cn1cc(-c2cc3nc(C(C)(C)C)n(-c4cc(N5CC(C)(O)C5)c5c(c4)n(C)c(=O)n5C)c3cc2OC(F)(F)F)cn1,< 0.5,0.5 to 5
CC(C)Oc1cc(-n2c(C(C)(C)C)nc3cc(-c4cnn(C)c4)c(C(F)F)cc32)cc2c1n(C)c(=O)n2C,< 0.5,> 5
Cn1cc(-c2cc3nc(-c4cncn4C)n(-c4cc(OCc5ccccc5)c5c(c4)n(C)c(=O)n5C)c3cc2C(F)F)cn1,< 0.5,> 5
Cn1cc(-c2cc3nc(-c4cncn4C)n(-c4cc(C5CCOCC5)c5c(c4)n(C)c(=O)n5C)c3cc2F)c(C(F)(F)F)n1,0.5 to 5,> 5
Cn1cc(-c2cc3nc(-c4cncn4C)n(-c4cc(C5CCN(C(=O)OC(C)(C)C)CC5)c5c(c4)n(C)c(=O)n5C)c3cc2F)cn1,< 0.5,> 5
C=C(C)c1cc(-n2c(-c3cncn3C)nc3cc(-c4cnn(C)c4)c(F)cc32)cc2c1n(C)c(=O)n2C,< 0.5,> 5
Cn1cc(-c2cc3nc(C(C)(C)C)n(-c4cc(N5CC(C)(O)C5)c5c(c4)n(C)c(=O)n5C)c3cc2C(F)(F)F)cn1,< 0.5,> 5
CNC(=O)c1ccc(-c2cc3nc(-c4cncn4C)n(-c4ccc5c(c4)n(C)c(=O)n5C)c3cc2C(=O)O)cc1F,< 0.5,> 5
CCCNc1cc(-n2c(-c3cncn3C)nc3cc(-c4ccc(NC(C)=O)cc4)c(F)cc32)cc2c1n(C)c(=O)n2C,< 0.5,> 5
Cn1cc(-c2cc3nc(-c4cncn4C)n(-c4cc(N5CC(C)(O)C5)c5c(c4)n(C)c(=O)n5C)c3cc2C(F)(F)F)cn1,< 0.5,0.5 to 5
Cn1cc(-c2cc3nc(-c4cncn4C)n(-c4ccc5c(c4)n(C)c(=O)n5CC4CC4)c3cc2F)cn1,0.5 to 5,> 5
Cn1cc(-c2cc3nc(C(C)(C)C)n(-c4cc(N5CCNCC5)c5c(c4)n(C)c(=O)n5C)c3cc2C(F)F)cn1,< 0.5,> 5
Cn1cc(-c2cc3nc(-c4cncn4C)n(-c4cc(N5CCCCC5)c5c(c4)n(C)c(=O)n5C)c3cc2F)cn1,< 0.5,> 5
